# In patent publication US7413866B2, “Compositions and methods for detecting and treating diseases and conditions related to chemokine receptors” (ChemoCentryx, Inc., priority 2001, dated 2008):
# By UniProt entry, the sequences of proteins in these tests, tags left out.
# UniProt P25106, whole entry: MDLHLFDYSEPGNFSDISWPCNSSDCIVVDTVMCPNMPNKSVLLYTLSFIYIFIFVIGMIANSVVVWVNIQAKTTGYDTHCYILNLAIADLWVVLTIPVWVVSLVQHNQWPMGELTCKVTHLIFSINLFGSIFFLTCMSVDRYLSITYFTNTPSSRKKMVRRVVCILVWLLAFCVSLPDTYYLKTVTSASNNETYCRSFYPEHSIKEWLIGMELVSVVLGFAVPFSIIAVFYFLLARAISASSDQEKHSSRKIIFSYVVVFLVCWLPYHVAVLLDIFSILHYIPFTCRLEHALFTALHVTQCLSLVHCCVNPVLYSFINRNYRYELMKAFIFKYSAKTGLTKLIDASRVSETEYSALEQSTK
# UniProt P61073, whole entry: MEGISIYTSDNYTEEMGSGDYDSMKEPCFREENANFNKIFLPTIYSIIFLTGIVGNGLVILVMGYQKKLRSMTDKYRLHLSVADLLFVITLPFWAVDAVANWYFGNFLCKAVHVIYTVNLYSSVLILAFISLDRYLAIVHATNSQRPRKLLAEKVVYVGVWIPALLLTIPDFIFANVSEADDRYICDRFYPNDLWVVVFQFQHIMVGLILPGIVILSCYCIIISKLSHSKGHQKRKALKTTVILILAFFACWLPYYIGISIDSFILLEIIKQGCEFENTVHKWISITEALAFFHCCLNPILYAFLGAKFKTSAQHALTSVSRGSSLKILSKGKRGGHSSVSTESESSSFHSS
# Key:
# [1] = target: CXCR4 on MCF-7 cells (Homo sapiens, UniProt P25106); experiment: 125I SDF-1α competition binding on MCF-7 cells
# [2] = target: CXCR4 on CEM-NKr cells (Homo sapiens, UniProt P61073); experiment: 125I SDF-1α competition binding on CEM-NKr cells
competition with / inhibition of 125I SDF-1α binding on MCF-7 (in words) [1],"IC50 ([2]; read-out: IC50, inhibition of 125I SDF-1α binding to CEM-NKr, 3 hr at 4° C.)","IC50 ([1]; read-out: IC50, competition with 125I SDF-1α for binding to MCF-7, 3 hr at 4° C.)",competition with / inhibition of 125I SDF-1α binding on CEM-NKr (in words) [2],SMILES
does not inhibit,0.106 µM,,,CN(C)CCCN(CCCN(C)C)CC1CC2C=CC1C2 (stereo not shown)
,,0.046 µM,does not inhibit,c1ccc(COc2ccc3[nH]cc(CC[n+]4c(-c5ccccc5)cc(-c5ccccc5)cc4-c4ccccc4)c3c2)cc1
